{"source": "PubChem BioAssay AID686970", "about": "(National Center for Advancing Translational Sciences (NCATS), 2013)", "note": "This is a selection; strong and weak results do not stand in their true shares. Inconclusive results are not listed. Active and inactive are the calls of the source. The call rests on the fitted dose curve; in most records, active means well fitted cell-killing curve with a large enough effect; inconclusive means small, poorly fitted or top-dose-only effect, or effect the other way; inactive means flat fitted curve, though single readings scatter. Potency means the concentration at half of the fitted maximal effect."}
{"test": "qHTS for induction of synthetic lethality in tumor cells producing 2HG: qHTS for the HT-1080-NT fibrosarcoma cell line;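 further: NT is the 2HG producing partner of a matched IDH1 knockdown line; nearly all actives have a fitted effect of over 55% in size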;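 on activity, negative = less viability: 0% = DMSO-treated cells and -100% = media-only wells without cells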", "conditions": "HT-1080-NT fibrosarcoma viability, CellTiter-Glo ATP luminescence, 48 h; series mostly up to 46.1 µM; activity, negative = less viability: at the top concentration"}
{"smiles": "Cc1cccc(C)c1OP(C)(N)=O", "note": "(stereo not drawn)", "activity, negative = less viability": "inactive: 0%"}
{"smiles": "CC(C)(C)c1ccc(OP(C)(=O)Nc2ccc(SC(F)(F)F)cc2)cc1", "note": "(stereo not drawn)", "activity, negative = less viability": "inactive: -38.3%"}
{"smiles": "COc1cc(C(=O)NCC2(N3CCOCC3)CCCCC2)ccc1OCC(C)C", "activity, negative = less viability": "inactive: -2.75%"}
{"smiles": "O=[N+]([O-])c1cc([N+](=O)[O-])c(Nc2cccnc2)c([N+](=O)[O-])c1", "activity, negative = less viability": "inactive: -2.38%"}
{"smiles": "Cc1cc(C)cc(OP(C)(N)=O)c1", "note": "(stereo not drawn)", "activity, negative = less viability": "inactive: 9.46%"}
{"smiles": "COc1ccc(OP(C)(=O)Nc2cccc(F)c2)cc1", "note": "(stereo not drawn)", "activity, negative = less viability": "inactive: 17%"}
{"smiles": "COc1ccccc1OP(C)(=O)Nc1cc(Cl)ccc1C", "note": "(stereo not drawn)", "activity, negative = less viability": "inactive: -4.95%"}
{"smiles": "Cc1ccc(NP(C)(=O)Oc2ccccc2)c(C)c1", "note": "(stereo not drawn)", "activity, negative = less viability": "inactive: -0.778%"}
{"smiles": "COc1ccccc1OP(C)(=O)Nc1ccc(C)cc1", "note": "(stereo not drawn)", "activity, negative = less viability": "inactive: 4.61%"}
{"smiles": "CCOC(=O)c1ccc(NP(C)(=O)Oc2ccccc2)cc1", "note": "(stereo not drawn)", "activity, negative = less viability": "inactive: 6.21%"}
{"smiles": "CCN(CC)CCCOC(=O)C(O)(c1ccccc1)c1ccccc1", "activity, negative = less viability": "inactive: 2.3%"}
{"smiles": "COc1ccccc1-c1ccccn1.O=[N+]([O-])c1cc([N+](=O)[O-])c(O)c([N+](=O)[O-])c1", "activity, negative = less viability": "inactive: 18.5%"}
{"smiles": "CP(=O)(NC(=O)Nc1ccccc1)Oc1ccccc1", "note": "(stereo not drawn)", "activity, negative = less viability": "inactive: 5.58%"}
{"smiles": "CCc1ccc(OP(C)(=O)N2CCN(c3ccc([N+](=O)[O-])cc3)CC2)cc1", "note": "(stereo not drawn)", "activity, negative = less viability": "inactive: -13.8%"}
{"smiles": "CP(=O)(Oc1ccccc1)OC(c1ccccc1)C(F)(F)F", "note": "(stereo not drawn)", "activity, negative = less viability": "inactive: -6.93%"}
{"smiles": "Cc1cccc(C)c1OP(C)(=O)Nc1ccc(SC(F)(F)F)cc1", "note": "(stereo not drawn)", "activity, negative = less viability": "inactive: 6.9%"}
{"smiles": "CP(=O)(Nc1ccc(SC(F)(F)F)cc1)Oc1ccc(Cl)cc1", "note": "(stereo not drawn)", "activity, negative = less viability": "inactive: 0.245%"}
{"smiles": "CP(=O)(Nc1ccccn1)Oc1ccc(Cl)cc1", "note": "(stereo not drawn)", "activity, negative = less viability": "inactive: 0.878%"}
{"smiles": "CCOC(=O)c1ccc(NP(C)(=O)Oc2ccc(OC)cc2)cc1", "note": "(stereo not drawn)", "activity, negative = less viability": "inactive: 15.4%"}
{"smiles": "O=[N+]([O-])c1cc([N+](=O)[O-])c(O)c([N+](=O)[O-])c1.c1ccc(Oc2ccncc2)cc1", "activity, negative = less viability": "inactive: 1.33%"}
{"smiles": "CCOP(C)(=S)SCC(=O)NC(C)C(=O)O", "note": "(stereo not drawn)", "activity, negative = less viability": "inactive: 10.4%"}
{"smiles": "CCCCOc1ccc(C(=O)NCC2(N3CCCCC3)CCCCC2)cc1OC", "activity, negative = less viability": "inactive: -13.1%"}
{"smiles": "CP(=O)(Nc1ccccc1Br)Oc1ccccc1", "note": "(stereo not drawn)", "activity, negative = less viability": "inactive: 23.1%"}
{"smiles": "COc1ccccc1OP(C)(=O)Nc1ccccc1", "note": "(stereo not drawn)", "activity, negative = less viability": "inactive: 1.05%"}
{"smiles": "CP(=S)(Nn1cnnc1)Oc1ccccc1", "note": "(stereo not drawn)", "activity, negative = less viability": "inactive: -0.0811%"}
{"smiles": "CN(C)C1(CNC(=O)c2ccc(S(C)(=O)=O)cc2)CCCCC1", "activity, negative = less viability": "inactive: -5.81%"}
{"smiles": "CC1=C2N=C(C=C3N=C(C(C)=C4[N-][C@@](C)([C@@H]5N=C1[C@](C)(CCC(=O)NC[C@@H](C)OP(=O)([O-])O[C@H]1[C@@H](O)[C@@H](n6cnc7cc(C)c(C)cc76)O[C@@H]1CO)[C@H]5CC(N)=O)[C@@](C)(CC(N)=O)[C@@H]4CCC(N)=O)[C@@](C)(CC(N)=O)[C@@H]3CCC(N)=O)C(C)(C)[C@@H]2CCC(N)=O.[C-]#N.[Co+3]", "activity, negative = less viability": "inactive: -9.55%"}
{"smiles": "O=[N+]([O-])c1cc([N+](=O)[O-])c(Nc2nnnn2CCO)c([N+](=O)[O-])c1", "activity, negative = less viability": "inactive: -4.88%"}
{"smiles": "COc1ccc(-c2ccccn2)cc1.O=[N+]([O-])c1cc([N+](=O)[O-])c(O)c([N+](=O)[O-])c1", "activity, negative = less viability": "inactive: 19.5%"}
{"smiles": "CCCOc1ccc(NP(C)(=O)Oc2ccc(Cl)cc2)cc1", "note": "(stereo not drawn)", "activity, negative = less viability": "inactive: -0.393%"}
{"smiles": "CP(=O)(Nc1ccc(SC(F)(F)F)cc1)Oc1ccccc1", "note": "(stereo not drawn)", "Potency": "active: 23.1 µM"}
{"smiles": "COc1ccccc1OP(C)(=O)Nc1c(C)cccc1C", "note": "(stereo not drawn)", "activity, negative = less viability": "inactive: 0.26%"}
{"smiles": "CN1CCCCC1COC(=O)C1(O)c2ccccc2CCc2ccccc21", "note": "(stereo not drawn)", "activity, negative = less viability": "inactive: -26.1%"}
{"smiles": "CN(Cc1cccnc1)C(=O)COc1ccc(Cl)c(Cl)c1.O=[N+]([O-])c1cc([N+](=O)[O-])c(O)c([N+](=O)[O-])c1", "activity, negative = less viability": "inactive: -0.163%"}
{"smiles": "O=[N+]([O-])c1cc([N+](=O)[O-])c(-n2nnc3ccccc32)c([N+](=O)[O-])c1", "activity, negative = less viability": "inactive: 0.423%"}
{"smiles": "Cc1nc2ccc3ccccc3c2s1.O=[N+]([O-])c1cc([N+](=O)[O-])c(O)c([N+](=O)[O-])c1", "activity, negative = less viability": "inactive: 4.28%"}
{"smiles": "O=[N+]([O-])c1cc([N+](=O)[O-])c(-c2cnn(-c3ccccc3)c2)c([N+](=O)[O-])c1", "Potency": "active: 29.1 µM"}
{"smiles": "CCOC(=O)c1ccc(NP(C)(=O)Oc2cc(C)cc(C)c2)cc1", "note": "(stereo not drawn)", "activity, negative = less viability": "inactive: -17.4%"}
{"smiles": "Cc1cc(C)cc(OP(C)(=O)Nc2ccc(C)cc2C)c1", "note": "(stereo not drawn)", "activity, negative = less viability": "inactive: -9.61%"}
{"smiles": "COc1ccccc1OP(C)(=O)Nc1cccc(Br)c1", "note": "(stereo not drawn)", "activity, negative = less viability": "inactive: 2.75%"}
{"smiles": "COc1cc(C(=O)NCC2(N3CCOCC3)CCCCC2)cc(Cl)c1OC(C)C", "activity, negative = less viability": "inactive: -15.6%"}
{"smiles": "Cc1ccc(C)c(NP(C)(=O)Oc2ccccc2)c1", "note": "(stereo not drawn)", "activity, negative = less viability": "inactive: 0.357%"}
{"smiles": "Cc1cc(C)cc(OP(C)(=O)Nc2ccccn2)c1", "note": "(stereo not drawn)", "activity, negative = less viability": "inactive: -1.05%"}
{"smiles": "CP(=O)(Nc1cccc(Br)c1)Oc1ccccc1", "note": "(stereo not drawn)", "activity, negative = less viability": "inactive: -0.372%"}
{"smiles": "CC1=NCCc2c1[nH]c1ccccc21.O=[N+]([O-])c1cc([N+](=O)[O-])c(O)c([N+](=O)[O-])c1", "activity, negative = less viability": "inactive: 2.65%"}
{"smiles": "CCOC(=O)c1ccc(NP(C)(=O)Oc2ccc(F)cc2)cc1", "note": "(stereo not drawn)", "activity, negative = less viability": "inactive: 1.21%"}
{"smiles": "COc1ccc(OP(C)(=O)Nc2ccc(SC(F)(F)F)cc2)cc1", "note": "(stereo not drawn)", "activity, negative = less viability": "inactive: -18.9%"}
{"smiles": "CP(=O)(Nc1ccccc1)Oc1ccc(F)cc1", "note": "(stereo not drawn)", "activity, negative = less viability": "inactive: 9.11%"}
{"smiles": "Cc1c([N+](=O)[O-])cc([N+](=O)[O-])c(Br)c1[N+](=O)[O-]", "activity, negative = less viability": "inactive: -0.988%"}
{"smiles": "CCN(CC)CCCOC(=O)C(O)(c1ccccc1)C1CCCCC1", "note": "(stereo not drawn)", "activity, negative = less viability": "inactive: -3.88%"}
{"smiles": "O=C(OCCN1CCN(CCOCc2ccccc2)CC1)C(O)(c1ccccc1)c1ccccc1", "activity, negative = less viability": "inactive: 1.25%"}
{"smiles": "CCOP(C)(=S)SCC(=O)NC(C)(CC)C(=O)O", "note": "(stereo not drawn)", "activity, negative = less viability": "inactive: 3.44%"}
{"smiles": "CP(=O)(Nc1ccc(SC(F)(F)F)cc1)Oc1ccc(F)cc1", "note": "(stereo not drawn)", "activity, negative = less viability": "inactive: -0.249%"}
{"smiles": "Cc1ccccc1NP(C)(=O)Nc1ccccc1C", "activity, negative = less viability": "inactive: -0.737%"}
{"smiles": "O=[N+]([O-])c1cc([N+](=O)[O-])c(C(F)(F)F)c([N+](=O)[O-])c1O", "activity, negative = less viability": "inactive: 2.14%"}
{"smiles": "CP(=O)(Nc1ccc2c(c1)OCCO2)Oc1ccccc1", "note": "(stereo not drawn)", "activity, negative = less viability": "inactive: -4.5%"}
{"smiles": "CN(C)CCOC(=O)C(O)(c1ccccc1)C1CCCCC1", "note": "(stereo not drawn)", "activity, negative = less viability": "inactive: -7.84%"}
{"smiles": "COc1ccc(NP(C)(=O)Oc2ccccc2OC)cc1", "note": "(stereo not drawn)", "activity, negative = less viability": "inactive: -18.8%"}
{"smiles": "COc1ccc(OP(C)(=O)Nc2cccc(Br)c2)cc1", "note": "(stereo not drawn)", "activity, negative = less viability": "inactive: 7.57%"}
{"smiles": "CN(C)C1(CNC(=O)c2ccc(Cl)c(S(N)(=O)=O)c2)CCCCC1", "activity, negative = less viability": "inactive: 9.33%"}
{"smiles": "Cc1c(C(c2ccc3c(c2)OCO3)c2c(C)n(C)n(-c3ccccc3)c2=O)c(=O)n(-c2ccccc2)n1C.O=[N+]([O-])c1cc([N+](=O)[O-])c(O)c([N+](=O)[O-])c1", "activity, negative = less viability": "inactive: 6.35%"}
{"smiles": "O=[N+]([O-])c1ccc(OP2(=O)COCCO2)cc1", "note": "(stereo not drawn)", "activity, negative = less viability": "inactive: 2.45%"}
{"smiles": "CCOC(=O)c1ccc(NP(C)(=O)Oc2ccc(Cl)cc2)cc1", "note": "(stereo not drawn)", "activity, negative = less viability": "inactive: 4.81%"}
